Earlier results on one molecule are cited in patent publication US20140050720A1, “ULTRALONG COMPLEMENTARITY DETERMINING REGIONS AND USES THEREOF” (THE SCRIPPS RESEARCH INSTITUTE, priority 2012, published 2014).

The data set relates to B-cell non-Hodgkin's Lymphoma (NHL). The settings on record: cited from earlier work.

B1: ibritumomab tiuxetan (conjugate, chains of the INN, looked up)
heavy: QAYLQQSGAELVRPGASVKMSCKASGYTFTSYNMHWVKQTPRQGLEWIGAIYPGNGDTSYNQKFKGKATLTVDKSSSTAYMQLSSLTSEDSAVYFCARVVYYSNSYWYFDVWGTGTTVTVSAPSVYPLAPVCGDTTGSSVTLGCLVKGYFPEPVTLTWNSGSLSSGVHTFPAVLQSDLYTLSSSVTVTSSTWPSQSITCNVAHPASSTKVDKKIEPRGPTIKPCPPCKCPAPNLLGGPSVFIFPPKIKDVLMISLSPIVTCVVVDVSEDDPDVQISWFVNNVEVHTAQTQTHREDYNSTLRVVSALPIQHQDWMSGKEFKCKVNNKDLPAPIERTISKPKGSVRAPQVYVLPPPEEEMTKKQVTLTCMVTDFMPEDIYVEWTNNGKTELNYKNTEPVLDSDGSYFMYSKLRVEKKNWVERNSYSCSVVHEGLHNHHTTKSFSR
light: QIVLSQSPAILSASPGEKVTMTCRASSSVSYMHWYQQKPGSSPKPWIYAPSNLASGVPARFSGSGSGTSYSLTISRVEAEDAATYYCQQWSFNPPTFGAGTKLELKRADAAPTVFIFPPSDEQLKSGTASVVCLLNNFYPREAKVQWKVDNALQSGNSQESVTEQDSKDSTYSLSSTLTLSKADYEKHKVYACEVTHQGLSSPVTKSFN
modifications: tiuxetan chelator radioisotope conjugate
notes: antibody-radioisotope conjugate of a murine IgG1 kappa anti-CD20 monoclonal antibody
Consider B1, for which the “activity against B-cell non-Hodgkin's Lymphoma (NHL)” value (human, in vivo) was “has activity”. The cytopenias on administration result (patients) was “severe and prolonged cytopenias in most patients”.
